From publication PMC6610884 (Journal of medicinal chemistry, 2018)

How the values were obtained:
P. berghei blood stages = details: Pb-infected mice, single oral 50 mg/kg dose 1 day PI, compared to untreated animals
P. falciparum TM90-C2B = details: RI = EC50 TM90-C2B/EC50 W2

SMILES | % inhibition day 6 PI (P. berghei blood stages) | RI (resistance index) (P. falciparum TM90-C2B)
COC(=O)c1c[nH]c2cc(CCN3CCN(Cc4ccccc4)CC3)ccc2c1=O [8ad, Methyl 7-(2-(4-Benzylpiperazin-1-yl)ethyl)-4-oxo-1,4-dihydroquinoline-3-carboxylate] | no inhibition | 
Cc1[nH]c2cc(CN3CCN(c4ccc(F)cc4)CC3)ccc2c(=O)c1Br [8an, 3-Bromo-7-((4-(4-Fluorophenyl)piperazin-1-yl)methyl)-2-methylquinolin-4(1H)-one] |  | 1.0
COC(=O)c1c[nH]c2cc(N3CCN(Cc4ccccc4)CC3)c(OC)cc2c1=O [8h, Methyl 7-(4-Benzylpiperazin-1-yl)-6-methoxy-4-oxo-1,4-dihydroquinoline-3-carboxylate] | no inhibition | 
COC(=O)c1c[nH]c2cc(CN3CCN(Cc4ccc5c(c4)OCO5)CC3)ccc2c1=O [8m, Methyl 7-((4-(Benzo[d][1,3]dioxol-5-ylmethyl)piperazin-1-yl)-methyl)-4-oxo-1,4-dihydroquinoline-3-carboxylate] | no inhibition | 
COC(=O)c1c[nH]c2cc(CN3CCN(c4ccc(C(F)(F)F)cc4)CC3)ccc2c1=O [8p, Methyl 4-Oxo-7-((4-(4-(trifluoromethyl)phenyl)piperazin-1-yl)-methyl)-1,4-dihydroquinoline-3-carboxylate] |  | 375
COC(=O)c1c[nH]c2cc(CN3CCN(c4ccc(OC)cc4)CC3)c(C)cc2c1=O [8t, Methyl 7-((4-(4-Methoxyphenyl)piperazin-1-yl)methyl)-6-methyl-4-oxo-1,4-dihydroquinoline-3-carboxylate] | no inhibition | 
COC(=O)c1c[nH]c2cc(CN3CCN(c4ccc(F)cc4)CC3)c(C)cc2c1=O [8u, Methyl 7-((4-(4-Fluorophenyl)piperazin-1-yl)methyl)-6-methyl-4-oxo-1,4-dihydroquinoline-3-carboxylate] |  | 417
COC(=O)c1c[nH]c2cc(CN3CCN(Cc4ccccc4)CC3)c(OC)cc2c1=O [8x, Methyl 7-((4-Benzylpiperazin-1-yl)methyl)-6-methoxy-4-oxo-1,4-dihydroquinoline-3-carboxylate] |  | >364
